Results as given in ChEMBL document CHEMBL4834405, “Structure-Based Design of High-Affinity Macrocyclic FKBP51 Inhibitors” (J Med Chem, 2021).

Columns and labels:
[1] = (§1) Selectivity ratio of Kd for displacement of fluorescent tracer 5-(3-(4-((1S,5S,6S)-10-(3,5-dichlorophenylsulfonyl)-2-oxo-3-(pyridin-3-ylmethyl)-3,10-diazabicyclo[4.3.1]decan-5-yl)-1H-1,2,3-triazol-1-yl)propylcarbamoyl)-2-(6-(dimethylamino)-3-(dimethyliminio)-3H-xanthen-9-yl)benzoate from recombinant full length C-terminal FLAG-tagged FKBP12.6 (unknown origin) to Kd for displacement of fluorescent tracer 5-(3-(4-((1S,5S,6S)-10-(3,5-dichlorophenylsulfonyl)-2-oxo-3-(pyridin-3-ylmethyl)-3,10-diazabicyclo[4.3.1]decan-5-yl)-1H-1,2,3-triazol-1-yl)propylcarbamoyl)-2-(6-(dimethylamino)-3-(dimethyliminio)-3H-xanthen-9-yl)benzoate from recombinant full length C-terminal FLAG-tagged FKBP51 (unknown origin)
[2] = as §1, with “FJBP12” for “FKBP12.6 (unknown origin)”
[3] = as §1, with “FKBP52” for “FKBP12.6”

COc1cccc([C@@H](CCc2ccc(OC)c(OC)c2)OC(=O)[C@@H]2CCCCN2C(=O)[C@H](c2cc(OC)c(OC)c(OC)c2)C2CCCCC2)c1
Selectivity ratio [1]: 2.4 | Selectivity ratio [2]: 3.1 | Selectivity ratio [3]: > 120
